Experimental findings from patent US20070270392A1, “Use of a Cyclopentenone Prostaglandin for Delaying the Onset and/or Preventing the Continuation of Labour” (Imperial College Innovations Limited, priority 2003, published 2007) are described below.

Sequences of proteins named here, by UniProt entry; tags and fusion partners are left off.
UniProt P37231, whole entry, species assumed: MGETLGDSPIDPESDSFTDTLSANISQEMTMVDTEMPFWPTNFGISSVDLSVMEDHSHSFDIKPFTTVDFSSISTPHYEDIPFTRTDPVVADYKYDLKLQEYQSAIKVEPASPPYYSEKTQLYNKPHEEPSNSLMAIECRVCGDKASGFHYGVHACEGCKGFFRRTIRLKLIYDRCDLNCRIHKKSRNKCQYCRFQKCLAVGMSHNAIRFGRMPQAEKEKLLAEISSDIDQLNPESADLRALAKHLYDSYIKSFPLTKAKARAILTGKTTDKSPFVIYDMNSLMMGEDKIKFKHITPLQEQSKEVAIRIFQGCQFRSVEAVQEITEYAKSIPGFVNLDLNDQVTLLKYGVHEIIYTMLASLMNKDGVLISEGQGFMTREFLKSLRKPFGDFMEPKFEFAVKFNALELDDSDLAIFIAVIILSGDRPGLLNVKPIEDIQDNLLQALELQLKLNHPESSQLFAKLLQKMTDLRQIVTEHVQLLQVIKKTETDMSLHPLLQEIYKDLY

The assay has as its target PPAR-γ (Homo sapiens, UniProt P37231). As to the kind of experiment: PPAR-γ-dependent PPRE reporter (3-PPRE-TK.pGL3) with PPAR-γ expression construct. The following applies: both cell types (myometrial, amnion), PPAR-γ overexpressed, 10 mM or 20 mM, 24 h.

Turning to `CN(CCOc1ccc(C[C@H](Nc2ccccc2C(=O)c2ccccc2)C(=O)O)cc1)c1ccccn1` [GW1929], the “PPAR-γ-mediated transcription of a PPRE-dependent reporter” value was “potentiating”.
